This note sets out measurements from PubChem BioAssay AID602449 (Sanford-Burnham Center for Chemical Genomics, 2012).

The list shows a part of the results, in another mix than the full data. The source made the active and inactive calls.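 How the source made its calls: active means inhibition of 50% or more, scaled per plate between neutral and stimulator controls; inactive means the rest.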

This assay can be described thus: blockers of Ca2+-induced mitochondrial swelling – biochemical, isolated mouse mitochondria, absorbance, primary screen (AID 602449).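 Further: 0% = DMSO wells given calcium and 100% = 1 mM EGTA wells.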 Conditions: 30 min, at 10 µM, stronger effect = higher value.
For the molecule `O=[N+]([O-])c1ccc(NC(=S)NCc2ccc(F)cc2)cc1`, the inhibition is active: 95.2%.

Consider `Fc1ccc(CNC(=S)Nc2cccc(Cl)c2)cc1`, for which the inhibition was active: 96.1%.
